Results published in ChEMBL document CHEMBL5579887, “Structure-Activity Relationship Studies of Substituted 2-Phenyl-1,2,4-triazine-3,5(2H,4H)-dione Analogues: Development of Potent eEF2K Degraders against Triple-Negative Breast Cancer” (J Med Chem, 2024).

Experiments:
[1] = target: T1, Eukaryotic elongation factor 2 kinase (Homo sapiens) (UniProt O00418); test: Inhibition of eEF2K (unknown origin) using NH 125 as inhibitor
T1 sequence (whole entry): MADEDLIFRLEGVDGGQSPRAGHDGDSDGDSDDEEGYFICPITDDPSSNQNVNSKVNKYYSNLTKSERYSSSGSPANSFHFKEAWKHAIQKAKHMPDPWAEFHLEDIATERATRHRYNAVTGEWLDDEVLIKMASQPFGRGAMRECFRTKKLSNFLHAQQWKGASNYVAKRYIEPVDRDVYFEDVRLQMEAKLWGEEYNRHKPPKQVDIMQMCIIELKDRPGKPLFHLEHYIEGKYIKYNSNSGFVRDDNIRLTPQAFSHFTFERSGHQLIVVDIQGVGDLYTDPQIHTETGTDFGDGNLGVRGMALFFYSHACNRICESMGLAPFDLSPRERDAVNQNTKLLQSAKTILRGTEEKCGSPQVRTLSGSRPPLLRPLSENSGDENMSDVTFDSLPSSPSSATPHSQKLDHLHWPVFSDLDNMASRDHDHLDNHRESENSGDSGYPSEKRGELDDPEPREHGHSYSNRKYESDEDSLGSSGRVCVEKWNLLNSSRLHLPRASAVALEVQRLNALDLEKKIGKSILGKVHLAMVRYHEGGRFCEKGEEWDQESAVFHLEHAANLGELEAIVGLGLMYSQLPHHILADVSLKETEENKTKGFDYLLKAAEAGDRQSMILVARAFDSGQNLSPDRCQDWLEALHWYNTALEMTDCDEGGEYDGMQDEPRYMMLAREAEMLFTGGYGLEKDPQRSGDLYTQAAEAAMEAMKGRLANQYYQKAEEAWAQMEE

[2] = target: T1, Eukaryotic elongation factor 2 kinase (Homo sapiens); test: Inhibition of eEF2K (unknown origin)
[3] = Toxicity in BALB/c mouse assessed as effect on lung weight at 5 to 10 mg/kg, measured by H and E staining based analysis; assay type: organism-based; conditions: in vivo, dose 5-10 mg/kg
[4] = Toxicity in BALB/c mouse assessed as effect on liver weight at 5 to 10 mg/kg, measured by H and E staining based analysis; assay type: organism-based; conditions: in vivo, dose 5-10 mg/kg
[5] = Volume of distribution in female BALB/c mouse at 5 mg/kg, ip measured after 24 hrs by LC/MS analysis; assay type: ADME, organism-based; conditions: in vivo
[6] = Toxicity in BALB/c mouse assessed as effect on body weight at 5 to 10 mg/kg, measured by H and E staining based analysis; assay type: organism-based; conditions: in vivo, dose 5-10 mg/kg
[7] = Toxicity in BALB/c mouse assessed as effect on spleen size at 5 to 10 mg/kg, measured by H and E staining based analysis; assay type: organism-based; conditions: in vivo, dose 5-10 mg/kg
[8] = Toxicity in BALB/c mouse assessed as effect on kidney weight at 5 to 10 mg/kg, measured by H and E staining based analysis; assay type: organism-based; conditions: in vivo, dose 5-10 mg/kg
[9] = Clearance in female BALB/c mouse at 5 mg/kg, iv measured after 24 hrs by LC/MS analysis; assay type: ADME, organism-based; conditions: in vivo
[10] = Volume of distribution in female BALB/c mouse at 10 mg/kg, po measured after 24 hrs by LC/MS analysis; assay type: ADME, organism-based; conditions: in vivo
[11] = Hepatotoxicity in BALB/c mouse xenografted with human MDA-MB-231 cells assessed as effect on serum CK level at 5 to 10 mg/kg measured after 24 hrs by biochemical analysis; assay type: toxicity, organism-based; conditions: in vivo, dose 5-10 mg/kg
[12] = Half life in female BALB/c mouse at 5 mg/kg, iv measured after 24 hrs by LC/MS analysis; assay type: ADME, organism-based; conditions: in vivo
[13] = Clearance in female BALB/c mouse at 10 mg/kg, po measured after 24 hrs by LC/MS analysis; assay type: ADME, organism-based; conditions: in vivo
[14] = Toxicity in BALB/c mouse assessed as effect on kidney size at 5 to 10 mg/kg, measured by H and E staining based analysis; assay type: organism-based; conditions: in vivo, dose 5-10 mg/kg
[15] = Hepatotoxicity toxicity in BALB/c mouse xenografted with human MDA-MB-231 cells assessed as effect on serum ALT level at 5 to 10 mg/kg measured after 24 hrs by biochemical analysis; assay type: organism-based; conditions: in vivo, dose 5-10 mg/kg
[16] = Toxicity in BALB/c mouse assessed as effect on heart size at 5 to 10 mg/kg, measured by H and E staining based analysis; assay type: organism-based; conditions: in vivo, dose 5-10 mg/kg
[17] = Cmax in female BALB/c mouse at 5 mg/kg, iv measured after 24 hrs by LC/MS analysis; assay type: ADME, organism-based; conditions: in vivo
[18] = Hepatotoxicity in BALB/c mouse xenografted with human MDA-MB-231 cells assessed as effect on serum LDH level at 5 to 10 mg/kg measured after 24 hrs by biochemical analysis; assay type: toxicity, organism-based; conditions: in vivo, dose 5-10 mg/kg
[19] = Toxicity in BALB/c mouse assessed as effect on heart weight at 5 to 10 mg/kg, measured by H and E staining based analysis; assay type: organism-based; conditions: in vivo, dose 5-10 mg/kg
[20] = Clearance in female BALB/c mouse at 5 mg/kg, ip measured after 24 hrs by LC/MS analysis; assay type: ADME, organism-based; conditions: in vivo
[21] = Hepatotoxicity in BALB/c mouse xenografted with human MDA-MB-231 cells assessed as effect on serum AST level at 5 to 10 mg/kg measured after 24 hrs by biochemical analysis; assay type: toxicity, organism-based; conditions: in vivo, dose 5-10 mg/kg
[22] = Toxicity in BALB/c mouse assessed as effect on liver size at 5 to 10 mg/kg, measured by H and E staining based analysis; assay type: organism-based; conditions: in vivo, dose 5-10 mg/kg
[23] = Toxicity in BALB/c mouse assessed as effect on spleen weight at 5 to 10 mg/kg, measured by H and E staining based analysis; assay type: organism-based; conditions: in vivo, dose 5-10 mg/kg
[24] = Renal toxicity in BALB/c mouse xenografted with human MDA-MB-231 cells assessed as effect on serum creatinine level at 5 to 10 mg/kg measured after 24 hrs by biochemical analysis; assay type: organism-based; conditions: in vivo, dose 5-10 mg/kg
[25] = Toxicity in BALB/c mouse assessed as effect on lung size at 5 to 10 mg/kg, measured by H and E staining based analysis; assay type: organism-based; conditions: in vivo, dose 5-10 mg/kg
[26] = Renal toxicity in BALB/c mouse xenografted with human MDA-MB-231 cells assessed as effect on serum urea level at 5 to 10 mg/kg measured after 24 hrs by biochemical analysis; assay type: organism-based; conditions: in vivo, dose 5-10 mg/kg
[27] = test system: MDA-MB-231; test: In vivo antitumor activity against human MDA-MB-231 cells xenografted in female nude mouse assessed as tumor growth inhibition at 10 mg/kg, ip administered every other day relative to control; assay type: functional

SMILES: CCCCCCCCCCCCCCCC[n+]1ccn(Cc2ccccc2)c1C
- inhibition [1]: Active

SMILES: O=C(/C=C/c1cccc(C(F)(F)F)c1)c1cc2ccccc2oc1=O
- inhibition [2]: Active

SMILES: Cc1ccc(-n2nc(C(=O)N3CCCCC3)c(=O)n(Cc3ccccc3)c2=O)cc1C
- Activity [3]: Non-Toxic
- Activity [4]: Non-Toxic
- Vd [5]: 51.9 L/kg
- Activity [6]: Non-Toxic
- Activity [7]: Non-Toxic
- Activity [8]: Non-Toxic
- CL [9]: 5.8 L/h/kg
- Vd [10]: 192.8 L/kg
- Activity [11]: Non-Toxic
- t1/2 [12]: 5.9 h
- CL [13]: 391.1 L/h/kg
- Activity [14]: Non-Toxic
- Activity [15]: Non-Toxic
- Activity [16]: Non-Toxic
- Cmax [17]: 549.3 ng/mL
- Activity [18]: Non-Toxic
- Activity [19]: Non-Toxic
- CL [20]: 17.3 L/h/kg
- Activity [21]: Non-Toxic
- Activity [22]: Non-Toxic
- Activity [23]: Non-Toxic
- Activity [24]: Non-Toxic
- Activity [25]: Non-Toxic
- Activity [26]: Non-Toxic

SMILES: CC(=O)O[C@H]1C(=O)[C@@]2(C)[C@H]([C@H](OC(=O)c3ccccc3)[C@]3(O)C[C@H](OC(=O)[C@H](O)[C@@H](NC(=O)c4ccccc4)c4ccccc4)C(C)=C1C3(C)C)[C@]1(OC(C)=O)CO[C@@H]1C[C@@H]2O [PACLITAXEL]
- Activity [27]: Active

Calls of active or inactive are those of the source. No cut-off for these calls is given here.
